# AlphaSeq binding of Ab-14 heavy chain variants to a spike HR2 peptide

Reference: Li et al. 2023, doi:10.1038/s41467-023-39022-2. File: FLAb, binding data.

All variants were tested on one target, the spike HR2 peptide PDVDLGDISGINAS (SARS-CoV-2).

Ab-14 is the parent antibody, in scFv form: VH, then three GGGGS repeats, then VL. The light chain is unchanged in all variants.
VH: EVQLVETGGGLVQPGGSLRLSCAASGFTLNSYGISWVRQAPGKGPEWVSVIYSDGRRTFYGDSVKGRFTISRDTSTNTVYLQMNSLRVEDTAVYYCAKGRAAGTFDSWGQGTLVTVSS
VL: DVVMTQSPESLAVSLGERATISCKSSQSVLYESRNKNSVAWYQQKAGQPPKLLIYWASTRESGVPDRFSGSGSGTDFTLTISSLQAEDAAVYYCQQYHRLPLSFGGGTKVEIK

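Phage display of a naive human antibody library on the peptide gave the parent. The variants were designed computationally from a first round of random CDR variants and then made and measured. Several design methods are mixed in this list. Affinity was read by AlphaSeq, a pooled yeast mating assay with surface-displayed partners. Binding brings cells together so that they mate, and sequencing counts the barcode pairs among the diploids. Read counts were normalised to the haploid input and turned into Kd by a linear fit to BCL2-family pairs of known affinity, for each replicate. Mating was done six times.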

The parent's heavy chain CDRs are GFTLNSYGIS, VIYSDGRRTFYGDSVK, GRAAGTFDS; each variant's own CDRs replace them letter for letter. Values are apparent Kd, the geometric mean of the replicates that gave a signal; lower means stronger binding. Where no diploid with the target was found in any replicate, the entry reads "nd": below detection, most likely a poor binder, though not proof of it. As a blank, each scFv also met three strains without target: over all heavy chain designs, 1% of these pairings were detected, typically at 120 nM and seldom below 7.0 nM.

CDR-H1 | CDR-H2 | CDR-H3 | apparent Kd | replicates with signal
GFGLDEYGIS | VIYADGFRAYYHDNVK | GFNYGVDIL | nd | 0/6
GFQLNSYGIS | VIYSDGRRTSYGDSVK | GRAAGTFDS | 99 nM | 6/6
GFDLNSYGIS | VIYSDGRRTFYGDSVK | GRAAGTFIS | nd | 0/6
GFSLDEMGIS | VIYADGQRTAYVDNVK | GVQGVVVGL | nd | 0/6
GFDIEDYGIS | VIYADGKRSAYSNSVK | GLMAGTMGY | 33 nM | 2/6
GFHLNTYGIS | VIYSDGRRTFYIDSVK | GEAAGTFDS | 63 nM | 5/6
GFDLNMYGIS | VIYSDGRRCFYGDSVK | GRAAGTFDS | 3.3 nM | 4/6
SFDLNSYGIS | VIYSDGRRTFYGDSVK | GRTAGTFDA | 6.7 nM | 5/6
GFTLNSYGIS | VIYSDGRRTFYGDSVK | GNEAGTFDS | 930 pM | 12/12
GFTLNSYGIS | VIYSDGQRTFYSDSVK | GKTAGTFDS | 1.9 nM | 6/6
GFTLNEYGIS | VIYSDGRRTFYGDSVK | GRAAGTFKR | 1.9 nM | 6/6
GFDLDEYGIS | VIYADGRRTFYADSVK | GELAGTFDV | 330 pM | 6/6
GFDLNEYGIS | VIYADGQRTAYADSVK | GKVAGTFDA | 330 pM | 6/6
GFDLNEYGIS | VIYADGKRTAYADSVK | GENAGTFDM | 1.8 nM | 6/6
GFSLNMYGIS | VIYSDGRRTFYIDSVK | GRTAGTFDS | 35 nM | 4/6
GQDLSEYGVS | VIYADGVRRSYAESVK | GNTSGNFSS | nd | 0/6
GFDLNSYGIS | VIYSDGRRTFYGDSVK | GKNAGTFDK | 2.1 nM | 6/6
GFNLDEYGIS | VIYADGRRTFYADSVK | GSTAGTFDT | 62 pM | 6/6
GFTLNLYGIS | VIYSDGRRVFWDDSVK | GQLAGSFDS | nd | 0/6
GFQLNDYGIS | VIYSDGRRTFYGDSVK | GRCAGTFIS | nd | 0/6
GFTLELYGIS | VIYSDGRRTFYGDSVK | GRAADTFDS | nd | 0/6
GFELNSYGIS | VIYSDGRRTFYGDMVK | GRTAGTFDV | 10 nM | 6/6
GFDLNEYGIS | VIYADGVRTFYVDSVK | GETAGTFVS | 900 pM | 6/6
GFDLNEYGIS | VIYADGMRTFYADSVK | GANAGTFDI | 1.3 nM | 6/6
GFDLNEYGIS | VIYADGMRTAYVDNVK | GNNAGTFDV | 79 pM | 6/6
GFNLDEYGIS | VIYADGRRTFYADSVK | GKHAGTFDT | 300 pM | 6/6
GFTLNEYGIS | VIYSDGRRTFYKDSVK | GFAAGTFDL | 22 nM | 6/6
GFSLDEYGIS | VIYADGMRTAYADSVK | GNQAGTFDV | 620 pM | 6/6
GFKIDEYGIS | VIYADGMRAHYSDAVK | GVKGGNVVM | 24 nM | 1/6
GFTLNSYGIS | VIYSDGRRTFYGDSVK | CYAAGTFDS | nd | 0/6
GFDLNEYGIS | VIYADGVRTAYEEKVK | GVITNLIWL | nd | 0/6
GFSLNDYGIS | VIYADGRRTFYGDSVK | DWWAGTVDS | nd | 0/6
GFTLNEYGIS | VIYSDGRRTFYGDSVK | GQTAGTFDK | 850 pM | 6/6
GFDLNSYGIS | VIYSDGKRTFYIDKVK | GQAAGTFDS | 420 pM | 6/6
GFDLDEYGIS | VIYADGRRTAYSDSVK | GENAGTFDT | 320 pM | 6/6
KFTLNSYGIS | VIYADGRRTFYGDSVK | GEAAGTFDS | 2.3 nM | 6/6
GFTLNEYGIS | VIYSDGRRTFYSDSVK | GQIAGTFDS | 1.8 nM | 6/6
GFSLNSYGIS | VIYSDGRRTFYTDSVK | GEAAGTFDA | 1.2 nM | 6/6
GFTLNSYGIS | VIYSDGRRTFYSDSVK | GQVAGTFDS | 1.1 nM | 6/6
GFELNSYGIS | VIYSDGRRTFYGDSVK | GTTAGTFDS | 1.2 nM | 6/6
GFDLEEYGIS | VIYADGHRSKYANSVK | GGQVDFALL | nd | 0/6
GKALDEYGIS | VIYADGKRTFYSNTVK | GEDGVFYDQ | nd | 0/6
GFDLNEYGIS | VIYADGRRTFYADSVK | GDVAGTFIQ | 520 pM | 6/6
GFTLNSYGIS | VIYSDGRRTFYGDSVK | GRARGTNSS | nd | 0/6
GFDLNEYGIS | VIYADGMRTAYADDVK | GSNAGTFDT | 210 pM | 6/6
GFTLNNYGIS | VIYSDGRRTQYIDSVK | GQAAGTFDS | 8.1 nM | 5/6
GFTLNDYGIS | VIYSDGRRTFYNDFVK | GRAALTFIS | 6.4 nM | 1/6
GFDLDEYGIS | VIYADGHRRAYADDVK | GMHSGSVQH | nd | 0/6
GFELNSYGIS | VIYSDGRRTFYGDSVS | GRAAGTFDS | 7.1 nM | 6/6
GFTLDSYGIS | VIYSDGRRTFYGDLVK | GRAAQTALS | 36 nM | 1/6
GFTLNSYGIS | VIYSDGRRTFYGDSVK | GRLAGTFDN | 480 nM | 1/6
GFDLNEYGIS | VIYADGRRTSYADSVK | GEAAGTFNV | 11 nM | 6/6
GFDLNEYGIS | VIYADGVRTAYSDSVK | GEAAGTFDL | 490 pM | 6/6
GFDLDEYGIS | VIYADGKRMAYTADVK | GVQGGNALV | nd | 0/6
GFDLNEYGIS | VIYADGMRTAYTDSVK | GNVAGTFDQ | 400 pM | 6/6
GFTLNSYGIS | VIYSDGRRTFYDDSVK | GQLAGTFES | nd | 0/6
GFTLNSYGIS | VDYSDGRRTFYGDSVP | GRAAGTFDS | nd | 0/6
GFDINEYGIS | VIYADGSRQYYADNVK | GVMNIMMEV | nd | 0/6
GFTLNSYGIS | VIYSDGRRTFYSDSVK | GMAAGTFDS | 3.8 nM | 6/6
GFCLNDYGIS | VKYSDGRRTQYIDSVK | GRAAGTFDS | 32 nM | 1/6
GFTINEYGIS | VIYADGKRTFYIDSVK | GSEAGTFDS | 160 pM | 6/6
GFSLNEYGIS | VIYADGKSMHYADSVK | GLESGFFDI | nd | 0/6
GFDLEKYGIS | VIYADGRRSVYADNVK | GMDGATGGF | nd | 0/6

For reference, 9 entries of the list once more:

| CDR-H1 | CDR-H2 | CDR-H3 | apparent Kd | replicates with signal |
|---|---|---|---|---|
| GFTLNSYGIS | VIYSDGRRTFYGDSVK | GNEAGTFDS | 930 pM | 12/12 |
| GFELNSYGIS | VIYSDGRRTFYGDMVK | GRTAGTFDV | 10 nM | 6/6 |
| GFSLDEMGIS | VIYADGQRTAYVDNVK | GVQGVVVGL | nd | 0/6 |
| GFQLNDYGIS | VIYSDGRRTFYGDSVK | GRCAGTFIS | nd | 0/6 |
| GFTLNSYGIS | VDYSDGRRTFYGDSVP | GRAAGTFDS | nd | 0/6 |
| GFSLDEYGIS | VIYADGMRTAYADSVK | GNQAGTFDV | 620 pM | 6/6 |
| GFKIDEYGIS | VIYADGMRAHYSDAVK | GVKGGNVVM | 24 nM | 1/6 |
| GFDLDEYGIS | VIYADGKRMAYTADVK | GVQGGNALV | nd | 0/6 |
| GFTLELYGIS | VIYSDGRRTFYGDSVK | GRAADTFDS | nd | 0/6 |

In the paper, a design with two or fewer of six values counts as a poor binder. Of ten entries with the parent sequence, four were seen in most replicates (averages 2.2 nM to 240 nM), three in one and three in none, so single entries are noisy. Where one sequence has several entries in the source, the replicates are pooled. Values of this round are not directly comparable with the first-round values of the same sequences.